The term Ki denotes the equilibrium dissociation constant of an inhibitor or competing ligand from its target. Low values mean higher affinity, high ones lower affinity.

The chains behind the UniProt entries cited, without tags or fusion partners. Where a name states a change or a piece, a line headed by the entry shows the natural chain unless it says otherwise.
UniProt P08254: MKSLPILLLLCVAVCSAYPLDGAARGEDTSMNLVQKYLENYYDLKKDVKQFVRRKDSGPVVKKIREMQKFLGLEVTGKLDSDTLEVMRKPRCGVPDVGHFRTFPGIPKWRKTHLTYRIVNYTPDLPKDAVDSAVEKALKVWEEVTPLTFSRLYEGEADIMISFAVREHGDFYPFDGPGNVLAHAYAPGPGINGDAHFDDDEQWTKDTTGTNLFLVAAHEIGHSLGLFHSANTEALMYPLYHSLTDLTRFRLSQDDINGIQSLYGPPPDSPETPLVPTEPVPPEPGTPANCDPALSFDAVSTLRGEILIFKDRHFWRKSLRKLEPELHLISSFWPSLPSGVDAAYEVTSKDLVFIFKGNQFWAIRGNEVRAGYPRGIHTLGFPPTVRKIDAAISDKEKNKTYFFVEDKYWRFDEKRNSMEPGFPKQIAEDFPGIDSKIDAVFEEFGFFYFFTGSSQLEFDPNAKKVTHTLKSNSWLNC

This assay concerns the target Stromelysin-1 (Homo sapiens, UniProt P08254). Kind of assay: Inhibition of stromelysin-1 (MMP-3).

Take `CC(C)C[C@H](NC(=O)[C@H](CCc1ccccc1)CP(=O)(O)CCCCN1C(=O)c2ccccc2C1=O)C(=O)Nc1ccccc1`: the affinity corresponds to a Ki of 1.4 nM.

These data come from ChEMBL document CHEMBL1128968, “Phosphinic acid inhibitors of matrix metalloproteinases” (Bioorg Med Chem Lett, 1996).
